Ki data for two molecules are collected here from ChEMBL document CHEMBL1134881, “3-Pyrroline containing arylacetamides: a novel series of remarkably selective kappa-agonists” (2002).

By UniProt entry, the sequences of proteins in these tests, tags left out. Where a name states a change or a piece, a line headed by the entry shows the natural chain unless it says otherwise.
UniProt P34975: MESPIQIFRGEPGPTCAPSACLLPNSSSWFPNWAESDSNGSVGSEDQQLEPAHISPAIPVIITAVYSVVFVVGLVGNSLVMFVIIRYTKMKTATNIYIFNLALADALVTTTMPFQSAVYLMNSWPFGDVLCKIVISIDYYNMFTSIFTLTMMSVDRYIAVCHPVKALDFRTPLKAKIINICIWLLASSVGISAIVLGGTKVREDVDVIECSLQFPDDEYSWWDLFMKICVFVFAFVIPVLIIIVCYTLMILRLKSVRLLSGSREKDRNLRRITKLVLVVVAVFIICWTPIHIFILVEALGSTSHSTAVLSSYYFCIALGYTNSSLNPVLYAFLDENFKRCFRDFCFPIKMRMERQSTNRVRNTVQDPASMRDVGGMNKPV

In this assay the target is Kappa-type opioid receptor (Rattus norvegicus, UniProt P34975). The assay is described as follows: Displacement of bound [3H]diprenorphine in cloned rat Opioid receptor kappa 1 expressed in Sf9 insect cells.

Usually Ki stands for a measure of affinity in units of concentration, obtained from inhibition or displacement. As to `CC(C)[C@@H](CN1CC=CC1)N(C)C(=O)Cc1ccc(Cl)c(Cl)c1`, the Ki came to 5.72 nM.

Consider `CSCC[C@@H](CN1CC=CC1)N(C)C(=O)Cc1ccc([N+](=O)[O-])cc1`, for which the Ki came to 3.06 nM.
